# Measured values taken from PubChem BioAssay AID1766 (National Center for Advancing Translational Sciences (NCATS), 2009).
# Several values for one entry are separate records, joined by “and”; a condition that tells them apart may be missing. Identical values can stand only once. Only a part is listed here, and it is no random draw. Records with an inconclusive call do not appear. Activity calls are given as the source filed them. The call rests on the fitted dose curve; in most records, active means well fitted curve in the direction sought with a large enough effect in the polarisation (not every such curve was filed as active); inconclusive means small, poorly fitted or top-dose-only effect, or effect the other way, or a change in a side signal; inactive means no such curve, though single readings can be large or run the other way; the % refers to the polarisation.
# Test: qHTS Assay for Inhibitors Targeting the Menin-MLL Interaction in MLL Related Leukemias: Competition With Fluorescein Labeled MLL-derived Peptide; further: % of control where 0% means no effect
# Conditions: Fluorescence polarization, fluorescein-MLL peptide displacement from menin; at 61.4 µM (top of the series)
row,Structure (SMILES),FP activity change
1,CN(CCCl)CCCl,inactive: -3.41% and inactive: 5.28%
2,CCC(=O)N(c1ccccc1)C1CCN(CCc2ccccc2)CC1,inactive: 0.535%
